Assay results from publication PMC9326885 (Journal of Food and Drug Analysis, 2017).

Protein sequences, listed by entry. Tags and fused reporters are not part of them. Lines headed by an entry give the natural chain unless they say otherwise; changes in a name come on top.
UniProt Q92887: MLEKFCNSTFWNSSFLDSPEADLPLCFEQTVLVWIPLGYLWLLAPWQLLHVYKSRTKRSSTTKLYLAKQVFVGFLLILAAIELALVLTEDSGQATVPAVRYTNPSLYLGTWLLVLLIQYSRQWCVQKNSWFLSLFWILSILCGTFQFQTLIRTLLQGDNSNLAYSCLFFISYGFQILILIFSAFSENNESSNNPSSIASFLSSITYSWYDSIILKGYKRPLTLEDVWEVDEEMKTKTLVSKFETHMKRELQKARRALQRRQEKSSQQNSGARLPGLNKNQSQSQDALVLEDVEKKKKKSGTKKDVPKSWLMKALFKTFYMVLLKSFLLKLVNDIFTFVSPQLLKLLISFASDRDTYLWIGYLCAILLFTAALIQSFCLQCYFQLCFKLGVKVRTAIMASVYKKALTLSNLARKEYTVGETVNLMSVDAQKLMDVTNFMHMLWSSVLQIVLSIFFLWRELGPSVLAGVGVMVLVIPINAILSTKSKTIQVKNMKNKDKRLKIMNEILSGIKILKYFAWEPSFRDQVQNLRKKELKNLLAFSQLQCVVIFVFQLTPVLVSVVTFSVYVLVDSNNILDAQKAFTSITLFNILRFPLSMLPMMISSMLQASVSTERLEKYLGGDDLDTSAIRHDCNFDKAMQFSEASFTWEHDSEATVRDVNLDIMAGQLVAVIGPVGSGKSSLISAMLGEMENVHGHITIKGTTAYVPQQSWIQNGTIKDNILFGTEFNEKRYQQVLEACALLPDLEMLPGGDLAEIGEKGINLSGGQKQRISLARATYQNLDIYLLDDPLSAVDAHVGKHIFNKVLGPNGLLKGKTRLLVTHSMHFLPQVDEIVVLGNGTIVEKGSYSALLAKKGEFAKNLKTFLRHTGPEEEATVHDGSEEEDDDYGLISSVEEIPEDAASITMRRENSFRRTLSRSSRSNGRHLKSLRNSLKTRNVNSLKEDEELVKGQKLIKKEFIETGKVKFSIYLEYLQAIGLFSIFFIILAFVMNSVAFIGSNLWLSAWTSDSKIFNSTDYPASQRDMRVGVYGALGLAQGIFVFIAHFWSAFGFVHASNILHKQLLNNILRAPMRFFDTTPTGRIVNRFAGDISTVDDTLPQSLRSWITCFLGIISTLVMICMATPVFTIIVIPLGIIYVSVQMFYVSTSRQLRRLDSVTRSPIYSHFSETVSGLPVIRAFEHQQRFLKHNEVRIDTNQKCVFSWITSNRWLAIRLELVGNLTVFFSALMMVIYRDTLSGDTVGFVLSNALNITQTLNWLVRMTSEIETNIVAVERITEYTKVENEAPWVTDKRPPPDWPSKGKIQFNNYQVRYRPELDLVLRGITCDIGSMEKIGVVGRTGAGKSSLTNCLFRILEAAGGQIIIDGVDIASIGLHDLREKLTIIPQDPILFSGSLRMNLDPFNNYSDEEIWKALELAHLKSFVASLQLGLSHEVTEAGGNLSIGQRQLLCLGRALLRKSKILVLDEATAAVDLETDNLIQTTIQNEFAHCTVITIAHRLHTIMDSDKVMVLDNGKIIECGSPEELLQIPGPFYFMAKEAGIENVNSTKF

Target: MRP 2 (Homo sapiens, UniProt Q92887)
Experiment: Effect on MRP 2-mediated efflux transport
Type: cell-based
Settings: MDCKII-MRP 2 cells, 100 μM, positive control of MRP 2 inhibitor

- Increase of intracellular accumulation of GSMF: 63%
SMILES: CN(C)C(=O)CCSC(SCCC(=O)O)c1cccc(/C=C/c2ccc3ccc(Cl)cc3n2)c1 (stereo not shown) [MK 571]
